Source: publication PMC4314249, “Characterizing the Peroxisome Proliferator-Activated Receptor (PPARγ) Ligand Binding Potential of Several Major Flame Retardants, Their Metabolites, and Chemical Mixtures in House Dust” (Environmental Health Perspectives, 2014)

Protein sequences, listed by entry. Tags and fused reporters are not part of them. Residues count along the entry.
UniProt P37231, 238-503 limits assumed: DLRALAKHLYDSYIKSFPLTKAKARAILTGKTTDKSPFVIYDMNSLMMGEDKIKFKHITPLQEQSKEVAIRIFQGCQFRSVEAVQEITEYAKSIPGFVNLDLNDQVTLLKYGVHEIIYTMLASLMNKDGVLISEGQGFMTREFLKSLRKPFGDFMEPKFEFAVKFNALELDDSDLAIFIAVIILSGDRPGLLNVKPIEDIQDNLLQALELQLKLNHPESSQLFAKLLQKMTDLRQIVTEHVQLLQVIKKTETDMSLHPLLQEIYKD

Target: human PPARγ ligand-binding domain (Homo sapiens, UniProt P37231)
Experiment: PolarScreen PPARγ-Competitor fluorescence polarization ligand binding assay

SMILES: CCCCOP(=O)(OCCCC)OCCCC
- IC50 (1.25 nM PPARγ Green, 38 nM PPARγ LBD, 3 h room temperature): 137 µM
- inhibition of the binding between the probe and the PPARγ LBD (2,500 μM): completely inhibit
- Kd (read-out: Kd (dissociation constant), calculated from IC50 by equation 3): 71.5 µM
- Relative potency (rosiglitazone set at 1): 0.0017
